Measured values taken from IntAct's records for PubMed 19103749.

B1: Transcription factor p65 (Homo sapiens), Q04206 (parent)
chain: MDELFPLIFPAEPAQASGPYVEIIEQPKQRGMRFRYKCEGRSAGSIPGERSTDTTKTHPTIKINGYTGPGTVRISLVTKDPPHRPHPHELVGKDCRDGFYEAELCPDRCIHSFQNLGIQCVKKRDLEQAISQRIQTNNNPFQVPIEEQRGDYDLNAVRLCFQVTVRDPSGRPLRLPPVLSHPIFDNRAPNTAELKICRVNRNSGSCLGGDEIFLLCDKVQKEDIEVYFTGPGWEARGSFSQADVHRQVAIVFRTPPYADPSLQAPVRVSMQLRRPSDRELSEPMEFQYLPDTDDRHRIEEKRKRTYETFKSIMKKSPFSGPTDPRPPPRRIAVPSRSSASVPKPAPQPYPFTSSLSTINYDEFPTMVFPSGQISQASALAPAPPQVLPQAPAPAPAPAMVSALAQAPAPVPVLAPGPPQAVAPPAPKPTQAGEGTLSEALLQLQFDDEDLGALLGNSTDPAVFTDLASVDNSEFQQLLNQGIPVAPHTTEPMLMEYPEAITRLVTGAQRPPDPAPAPLGAPGLPNGLLSGDEDFSSIADMDFSALLSQISS

Variants of: B1
Conditions: with brd4_mouse Brd4
For K310R, the “effect of a mutation on the interaction” value was “disrupting interaction”.
